From PubChem BioAssay AID588352 (The Scripps Research Institute Molecular Screening Center, 2011)
The entries are a selection whose mix differs from that of the whole data set. Calls of active or inactive are those of the source.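 The calls were made as follows: active = inhibition above a per-campaign cutoff, the mean of all compounds plus 3 SD (cut at about 60% in these data); inactive = the rest.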

Amino acid sequences for entries named in this document (tags omitted).
UniProt Q9Y6Q9, whole entry, looked up: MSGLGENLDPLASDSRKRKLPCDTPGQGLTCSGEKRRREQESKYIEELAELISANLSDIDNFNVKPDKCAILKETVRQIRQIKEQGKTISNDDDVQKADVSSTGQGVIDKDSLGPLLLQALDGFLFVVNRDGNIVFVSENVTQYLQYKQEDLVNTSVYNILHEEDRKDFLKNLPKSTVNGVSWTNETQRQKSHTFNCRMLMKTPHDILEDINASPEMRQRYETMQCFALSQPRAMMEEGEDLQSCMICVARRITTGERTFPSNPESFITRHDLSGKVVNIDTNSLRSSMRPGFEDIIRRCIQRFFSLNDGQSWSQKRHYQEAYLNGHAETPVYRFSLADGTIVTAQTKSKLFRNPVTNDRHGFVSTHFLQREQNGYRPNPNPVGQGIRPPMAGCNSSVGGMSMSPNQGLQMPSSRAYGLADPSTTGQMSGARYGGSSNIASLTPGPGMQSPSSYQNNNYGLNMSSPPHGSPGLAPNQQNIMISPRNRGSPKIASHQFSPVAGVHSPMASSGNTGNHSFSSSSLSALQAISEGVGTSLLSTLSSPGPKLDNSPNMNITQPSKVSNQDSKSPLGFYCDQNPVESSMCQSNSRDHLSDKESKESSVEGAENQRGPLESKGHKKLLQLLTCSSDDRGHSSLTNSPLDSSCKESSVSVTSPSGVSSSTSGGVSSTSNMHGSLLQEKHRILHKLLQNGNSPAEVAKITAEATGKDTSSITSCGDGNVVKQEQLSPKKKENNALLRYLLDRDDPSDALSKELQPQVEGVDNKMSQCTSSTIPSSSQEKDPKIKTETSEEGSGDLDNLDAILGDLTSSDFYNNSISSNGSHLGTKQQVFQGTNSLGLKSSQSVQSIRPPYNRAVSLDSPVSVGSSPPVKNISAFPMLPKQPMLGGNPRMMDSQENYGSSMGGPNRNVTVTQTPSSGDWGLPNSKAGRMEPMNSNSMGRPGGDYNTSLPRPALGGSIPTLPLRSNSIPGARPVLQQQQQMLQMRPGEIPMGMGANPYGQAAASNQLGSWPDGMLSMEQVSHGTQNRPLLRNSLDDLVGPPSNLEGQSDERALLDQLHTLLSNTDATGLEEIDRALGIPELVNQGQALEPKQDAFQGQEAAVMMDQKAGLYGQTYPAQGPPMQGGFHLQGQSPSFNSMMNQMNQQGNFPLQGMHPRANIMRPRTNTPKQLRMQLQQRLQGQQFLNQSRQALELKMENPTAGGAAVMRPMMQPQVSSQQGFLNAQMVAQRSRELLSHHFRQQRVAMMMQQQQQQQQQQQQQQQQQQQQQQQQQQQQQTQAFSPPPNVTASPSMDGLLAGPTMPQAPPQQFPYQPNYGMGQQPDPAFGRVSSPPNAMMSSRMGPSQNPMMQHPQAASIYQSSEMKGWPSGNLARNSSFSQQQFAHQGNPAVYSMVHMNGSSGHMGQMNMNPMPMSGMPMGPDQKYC

molecular target: Nuclear receptor coactivator 3 (Homo sapiens) (UniProt Q9Y6Q9); assay: NCOA3 GAL4-fusion reporter inhibition – cell-based, luminescence, primary screen (AID 588352); conditions: HEK293 GAL4-SRC3 luciferase reporter, at 3.6 µM, hits give high values;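 also: 0% = DMSO-treated cells and 100% = gossypol-treated cells at 36 µM; higher means less SRC3-driven luciferase light from the GAL4 reporter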

| SMILES | inhibition |
| --- | --- |
| CC(=O)Nc1ccc(Oc2c([N+](=O)[O-])cc([N+](=O)[O-])cc2[N+](=O)[O-])cc1 | inactive: -4.38% |
| O=P1(Nc2nc3ccc(Cl)cc3s2)COc2ccccc2O1 (stereo unspecified) | inactive: -16.4% |
| CCOc1ccc(C2=NCC(CBr)S2)cc1 (stereo unspecified) | inactive: 13.7% |
| CCc1cc(O)c([N+](=O)[O-])c(C)c1[N+](=O)[O-] | inactive: 5.28% |
| CC(C)(C)C(=O)NC(Sc1ccccc1)C(Cl)(Cl)Cl (stereo unspecified) | inactive: 14.1% |
| COC(=O)c1cc2c(s1)N=C(c1ccccc1)N(C)P2(=O)N1CCOCC1 (stereo unspecified) | inactive: 10.4% |
| Cc1ccc(OP(=O)(Nc2ccccn2)Oc2ccc(C)cc2)cc1 | inactive: 14.7% |
| CC(=O)NC(SC(=S)N(CC(C)C)CC(C)C)C(Cl)(Cl)Cl (stereo unspecified) | inactive: 6.53% |
| O=C(OC1CN2CCC1CC2)c1ccccc1 (stereo unspecified) | inactive: -8.02% |
| CCC(=O)N1C2C3N(C(=O)CC)C1C1N(C(=O)CC)C(C(N1C(=O)CC)N3C(=O)CC)N2C(=O)CC | inactive: 12.6% |
| Cc1ccccc1OP(=O)(Nc1ccccn1)Oc1ccccc1C | inactive: 18.8% |
| CC(NC(=O)COC(=O)C(O)(c1ccccc1)c1ccccc1)c1ccccc1 (stereo unspecified) | inactive: 12.7% |
| CN(C)C(=O)Oc1noc2ccccc12 | inactive: 3.79% |
| O=c1c2cc([N+](=O)[O-])ccc2[nH]c2c([N+](=O)[O-])cc([N+](=O)[O-])cc12 | inactive: -7.92% |
| CCNC(=S)/N=C(\N)N[N+](=O)[O-] | inactive: 6.8% |
| O=C(NC1CCS(=O)(=O)C1)NP(=S)(Oc1ccccc1)Oc1ccccc1 (stereo unspecified) | inactive: 11.1% |
| c1ccc(-c2nn[nH]n2)c(-c2nn[nH]n2)c1 | inactive: 3.09% |
| Cc1ccc(NP(=O)(Oc2cccc(C)c2)Oc2cccc(C)c2)nc1 | inactive: 17.1% |
| O=P1(N(CCCl)CCCl)OCCC2CCCCN21 (stereo unspecified) | inactive: -18.8% |
| O=[N+]([O-])c1ccc(O)c(/C=N/Nc2ccc([N+](=O)[O-])cc2[N+](=O)[O-])c1 | inactive: -4.24% |
| O=[N+]([O-])c1ncn(CCn2cnc([N+](=O)[O-])n2)n1 | inactive: 2.48% |
| CC(=O)NC(SC(=S)N(C)C)C(Cl)(Cl)Cl (stereo unspecified) | inactive: 13.3% |
| O=[As](O)(c1ccccc1)c1ccc(O)cc1 | inactive: 4.85% |
| Nc1ccc([As](=O)(O)c2ccc([N+](=O)[O-])cc2)cc1 | inactive: 5.96% |
| C(Cc1nn[nH]n1)Cc1nn[nH]n1 | inactive: -0.7% |
| O=C(OC1CN2CCC1CC2)c1cccc(Cl)c1 (stereo unspecified) | inactive: -7.6% |

| SMILES | inhibition |
| --- | --- |
| Nc1ccc(CCCCOc2ccccc2)cc1 | inactive: -31.6% |
| COc1ccc(N)c([N+](=O)[O-])c1[N+](=O)[O-] | inactive: -3.14% |
| O=P(Nc1ccccn1)(c1ccc(Br)cc1)c1ccc(Br)cc1 | inactive: 8.93% |
| CN(C)C1(CNC(=O)c2ccc(Cl)c(S(N)(=O)=O)c2)CCCCC1 | inactive: -2.02% |
| O=P(Nc1nc2ccccc2s1)(c1ccccc1)c1ccccc1 | inactive: 12.5% |
| C[C@H]1OP(=O)(Oc2ccccc2)[C@H](O)[C@H](O)[C@H]1N=[N+]=[N-] (stereo partly specified) | inactive: -3.64% |
| CC(C)C(=O)NC(Sc1ccccc1)C(Cl)(Cl)Cl (stereo unspecified) | inactive: 18.2% |
| O=P(Nc1nccs1)(c1ccccc1)c1ccccc1 | inactive: 5.44% |
| c1nnnn1CCn1cnnn1 | inactive: -25.1% |
| COc1ccccc1CNC(=O)COC(=O)C(O)(c1ccccc1)c1ccccc1 | inactive: -0.82% |
| CC1(CBr)Cn2c(nc3ccccc3c2=O)S1 (stereo unspecified) | inactive: -0.87% |
| CC(C)/C=N\N=C(\N)N[N+](=O)[O-] | inactive: -0.56% |
| CN(C(=O)Cc1ccc(Cl)c(Cl)c1)[C@@H]1CCCC[C@H]1N1CCCC1 | inactive: 4.59% |
| CN(CCCl)Cc1cc(Cl)c(NC2=NCCN2)c(Cl)c1 | inactive: -4.32% |
| CCOP(=O)(Nc1ccc(C)cn1)OCC | inactive: 2.61% |
| O=P1(Nc2ccccn2)COc2ccccc2OC1 | inactive: -12.1% |
| CCC1=CC2Cc3nc4ccc(Cl)cc4c(N)c3C(C1)C2 (stereo unspecified) | inactive: 11.7% |
| CCOP(=O)(NC(=NC(C)c1ccccc1)NC(C)c1ccccc1)OCC (stereo unspecified) | inactive: 0.81% |
| O=P1(N(CCCl)CCCl)NCCC(C(F)(F)F)O1 (stereo unspecified) | inactive: 14.4% |
| Clc1n[nH]nc1-c1nn[nH][15n]1 | inactive: -24.8% |
| CC(C)(C)C(=O)NC(Sc1ncccn1)C(Cl)(Cl)Cl (stereo unspecified) | inactive: 13.2% |
| O=P1(Nc2ncccn2)COc2ccccc2OC1 | inactive: -3.73% |
| Cc1ccc(S(=O)(=O)N(CCCN)CCCc2c(C)nc(N)[nH]c2=O)cc1 | inactive: 12.3% |
| O=P1(Nc2ccc(Br)cn2)COc2ccccc2OC1 | inactive: 15.5% |
| NS(=O)(=O)c1cccc(NC(=O)COC(=O)C(O)(c2ccccc2)c2ccccc2)c1 | inactive: -1.7% |
